How the values were obtained:
[1] = solubility of the two drugs (water, volatile organic solvent)
[2] = tested on: obesity-induced rat model; assay: anti-obesity effectiveness: body weight reduction rate in obesity-induced rat model; settings: compared to G1 (vehicle), Fig. 1; male SD rats, high-fat diet 13 weeks, S.C for 4 weeks; Enavogliflozin 0.30 mg/kg once a day; Saxenda: Liraglutide 0.31 mg/kg once a day; Prep. Ex. 1(2W): ENAVO 5.32 + LIRA 2.17 mg/kg once every 2 weeks; 2(2W): ENAVO 4.20 + LIRA 2.17 mg/kg once every 2 weeks; 2(4W): ENAVO 8.40 + LIRA 4.34 mg/kg once every 4 weeks
[3] = tested on: obesity-induced rat model; assay: body composition analysis (body fat mass and muscle mass) in obesity-induced rat model; settings: mean; male SD rats fed 60% HFD, S.C for 4 weeks; Enavogliflozin 0.30 mg/kg once a day; Saxenda: Liraglutide 0.31 mg/kg once a day; Prep. Ex. 1(2W): ENAVO 5.32 + LIRA 2.17 mg/kg once every 2 weeks; 2(2W): ENAVO 4.20 + LIRA 2.17 mg/kg once every 2 weeks; 2(4W): ENAVO 8.40 + LIRA 4.34 mg/kg once every 4 weeks

water solubility [1] | solubility in a volatile organic solvent (for example, methylene chloride) ([1]; solvent used for manufacturing a microparticle) | Compound | body weight reduction rate [2] | FAT [3] | FAT In Tissue [3] | LEAN [3]
about 50 mg/mL | not dissolved at all | liraglutide |  |  |  | 
 |  | OC[C@H]1O[C@@H](c2cc(Cc3ccc(C4CC4)cc3)c(Cl)c3c2CCO3)[C@H](O)[C@@H](O)[C@@H]1O | -3.39% | 311.1294 g | 38.6281% | 490.0705 g
